The values below are quoted from earlier work in patent US20170003257A1, “WETNESS INDICATOR WITH TWO COLORANTS AND TWO STABILIZERS” (The Procter & Gamble Company, priority 2015, published 2017).

Some compounds may have been tested in ways that are not shown here.

For the series the following is noted: Table 2 stabilizers, first pKa.

For the compound `O=[N+]([O-])c1cc([N+](=O)[O-])c(O)c([N+](=O)[O-])c1`, the pKa (1) is 0.4.
